Values of other authors, collected in patent publication US20180296559A1, “TREATMENT OF AIRWAY SMOOTH MUSCLE DYSFUNCTION” (priority 2016, published 2018).

Test system: ALK induced lung cancer
Settings: 82 patients, cited from earlier work

In the case of C[C@@H](Oc1cc(-c2cnn(C3CCNCC3)c2)cnc1N)c1c(Cl)ccc(F)c1Cl [crizotinib], the “progression free survival at 6 months” value (6 months) is given as 72%, the “disease control rate at 8 weeks” value (8 weeks) is given as 87% and the overall response rate (early results) is given as 57%.
